Reference: patent US11045453B1 (priority 2020, dated 2021)

Test system: human bronchial epithelial cells (HBEC)

Substance: 4-[[4-[(Aminoiminomethyl)amino]benzoyl]oxy] benzeneacetic acid 2-(dimethylamino)-2-oxoethyl ester methanesulfonate [camostat, reference compound]
- cell viability / cytotoxicity, LDH release: without significant compromise to cell viability
